Here are results for three compounds from ChEMBL document CHEMBL1152751, “2,5-Disubstituted tetrahydrofurans as selective serotonin re-uptake inhibitors” (Bioorg Med Chem, 2009).

By UniProt entry, the sequences of proteins in these tests, tags left out.
UniProt P23975, whole entry: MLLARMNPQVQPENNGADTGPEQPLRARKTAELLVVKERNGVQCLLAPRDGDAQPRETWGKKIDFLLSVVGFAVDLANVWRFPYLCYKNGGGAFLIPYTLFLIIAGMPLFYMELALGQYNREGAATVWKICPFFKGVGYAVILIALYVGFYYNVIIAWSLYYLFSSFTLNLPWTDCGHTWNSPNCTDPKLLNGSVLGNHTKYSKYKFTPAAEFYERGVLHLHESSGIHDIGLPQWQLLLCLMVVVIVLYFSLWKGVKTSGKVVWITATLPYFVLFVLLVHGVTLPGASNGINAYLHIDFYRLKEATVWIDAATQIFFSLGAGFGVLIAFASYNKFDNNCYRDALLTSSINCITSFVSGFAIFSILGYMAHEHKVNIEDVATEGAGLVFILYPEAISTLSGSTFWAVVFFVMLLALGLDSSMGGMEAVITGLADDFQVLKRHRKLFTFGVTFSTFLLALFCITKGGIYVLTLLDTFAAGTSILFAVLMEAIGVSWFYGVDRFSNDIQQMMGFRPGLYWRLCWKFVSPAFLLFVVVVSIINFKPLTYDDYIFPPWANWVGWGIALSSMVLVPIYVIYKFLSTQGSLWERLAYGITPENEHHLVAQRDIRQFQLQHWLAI

The structures appear in SMILES notation. Where only a bound is given, the exact number is not on record here.

As usually defined, the IC50 is the midpoint of a concentration-inhibition curve. A word on the Ki: it is the dissociation constant of the complex between target and ligand, obtained from inhibition or displacement. A low value points to a stronger hold on the target.

The target in assay [1] is T1, Sodium-dependent noradrenaline transporter (Homo sapiens, UniProt P23975). Description: Inhibition of [3H]norepinephrine reuptake at human NET expressed in HEK cells. In kind it is cell-based, HEK293.
The target of assay [2] is T1, Sodium-dependent noradrenaline transporter. Description: biochemical. It is filed as cell-based, HEK293.

The compound `COc1ccc(F)cc1[C@H]1CC[C@H](CN)O1` (relative stereo) yielded an IC50 in assay [1] of over 10 µM.

In assay [2], `COc1ccc(F)cc1C[C@H]1CC[C@H](CN)O1` (relative stereo) yielded a Ki of 24.1 µM.

For `COc1ccc(F)cc1C1CCC(CN)O1` (stereo not drawn), the IC50 in assay [1] is over 10 µM.
